Reference: ChEMBL document CHEMBL1139498, “Discovery of potent, orally available vanilloid receptor-1 antagonists. Structure-activity relationship of N-aryl cinnamides” (J Med Chem, 2005)

Chains of the proteins cited; added tags and fusions are not shown.
UniProt Q8NER1, whole entry: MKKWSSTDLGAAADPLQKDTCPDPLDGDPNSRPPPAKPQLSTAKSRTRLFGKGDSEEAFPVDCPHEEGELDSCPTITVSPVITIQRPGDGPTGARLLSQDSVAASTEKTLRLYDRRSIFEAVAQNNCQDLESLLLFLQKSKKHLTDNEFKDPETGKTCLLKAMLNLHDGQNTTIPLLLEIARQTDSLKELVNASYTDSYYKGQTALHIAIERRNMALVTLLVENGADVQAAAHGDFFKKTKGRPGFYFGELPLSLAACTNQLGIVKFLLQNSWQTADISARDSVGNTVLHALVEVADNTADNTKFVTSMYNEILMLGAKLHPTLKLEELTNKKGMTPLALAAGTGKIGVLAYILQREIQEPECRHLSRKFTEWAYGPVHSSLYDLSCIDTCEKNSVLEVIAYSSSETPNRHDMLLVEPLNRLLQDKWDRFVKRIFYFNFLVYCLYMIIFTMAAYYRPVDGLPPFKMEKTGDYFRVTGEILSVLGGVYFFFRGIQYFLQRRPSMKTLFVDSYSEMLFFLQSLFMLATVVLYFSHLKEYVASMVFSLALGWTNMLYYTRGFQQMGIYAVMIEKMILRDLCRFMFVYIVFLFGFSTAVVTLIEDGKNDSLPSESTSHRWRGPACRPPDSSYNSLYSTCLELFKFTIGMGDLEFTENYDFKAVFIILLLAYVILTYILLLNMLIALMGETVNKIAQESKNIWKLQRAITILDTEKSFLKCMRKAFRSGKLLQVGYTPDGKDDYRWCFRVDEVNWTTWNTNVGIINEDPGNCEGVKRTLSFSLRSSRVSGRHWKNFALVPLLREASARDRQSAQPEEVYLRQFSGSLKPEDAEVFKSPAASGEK

Molecular target: Transient receptor potential cation channel subfamily V member 1 (Homo sapiens, UniProt Q8NER1)
Test: Inhibition of capsaicin-induced calcium uptake by transient receptor potential vanilloid type 1 expressed in CHO cells
Format: functional, cell-based

IC50 [nM]	Structure (SMILES)
1200	CC(C)(C)c1ccc(/C=C/C(=O)Nc2ccc3c(c2)OCCO3)cc1 (stereo in doubt; 34)
670	CC(C)(C)c1ccc(/C=C/C(=O)Oc2ccc3c(c2)OCCO3)cc1
1.1	CC(C)(C)c1ccc(/C=C/C(=O)Nc2ccc3cccnc3c2)cc1
39	C/C(=C\C(=O)Nc1ccc2c(c1)OCCO2)c1ccc(C(C)(C)C)cc1
